Test results as given in patent US12146155B2, “Method for constructing human pluripotent stem cell-derived liver organoid having enhanced drug metabolic potential and liver organoid constructed by same method” (KOREA RESEARCH INSTITUTE OF CHEMICAL TECHNOLOGY, priority 2021, dated 2024).

Protein sequences, listed by entry. Tags and fused reporters are not part of them.
UniProt O95342, whole entry: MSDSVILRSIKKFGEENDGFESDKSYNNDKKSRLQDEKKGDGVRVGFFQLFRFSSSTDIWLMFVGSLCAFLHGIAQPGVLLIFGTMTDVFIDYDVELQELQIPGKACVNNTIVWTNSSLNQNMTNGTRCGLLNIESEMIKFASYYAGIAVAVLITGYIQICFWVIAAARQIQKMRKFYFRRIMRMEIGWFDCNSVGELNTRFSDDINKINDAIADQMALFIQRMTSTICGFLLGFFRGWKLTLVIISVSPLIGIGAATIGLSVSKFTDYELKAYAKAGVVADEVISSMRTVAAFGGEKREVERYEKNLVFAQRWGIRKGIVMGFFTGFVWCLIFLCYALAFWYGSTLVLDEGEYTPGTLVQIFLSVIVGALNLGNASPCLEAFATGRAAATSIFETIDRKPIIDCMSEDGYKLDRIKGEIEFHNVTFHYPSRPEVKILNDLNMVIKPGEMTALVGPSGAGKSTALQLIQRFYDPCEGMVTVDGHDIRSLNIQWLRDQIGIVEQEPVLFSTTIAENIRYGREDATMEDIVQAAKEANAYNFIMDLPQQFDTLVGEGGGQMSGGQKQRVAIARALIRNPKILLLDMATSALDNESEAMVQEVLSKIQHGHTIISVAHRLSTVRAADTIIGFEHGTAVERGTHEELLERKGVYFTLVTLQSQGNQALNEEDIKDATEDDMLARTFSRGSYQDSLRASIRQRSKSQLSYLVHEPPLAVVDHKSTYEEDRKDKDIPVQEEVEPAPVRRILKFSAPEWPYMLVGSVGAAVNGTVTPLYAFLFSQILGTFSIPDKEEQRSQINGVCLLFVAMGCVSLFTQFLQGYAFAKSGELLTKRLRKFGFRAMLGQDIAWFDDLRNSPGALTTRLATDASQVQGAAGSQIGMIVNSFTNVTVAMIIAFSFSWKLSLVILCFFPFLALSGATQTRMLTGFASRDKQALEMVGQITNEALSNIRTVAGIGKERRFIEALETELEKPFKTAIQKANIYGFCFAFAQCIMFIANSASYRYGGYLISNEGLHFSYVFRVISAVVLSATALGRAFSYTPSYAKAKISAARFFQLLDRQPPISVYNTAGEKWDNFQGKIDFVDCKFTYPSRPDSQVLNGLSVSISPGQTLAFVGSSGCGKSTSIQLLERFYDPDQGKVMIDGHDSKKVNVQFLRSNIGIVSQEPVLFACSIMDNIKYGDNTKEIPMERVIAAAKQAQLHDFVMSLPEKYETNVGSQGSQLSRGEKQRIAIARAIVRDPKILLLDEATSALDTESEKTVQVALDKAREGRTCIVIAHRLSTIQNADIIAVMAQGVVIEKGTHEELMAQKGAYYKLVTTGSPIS

Target: BSEP (Homo sapiens, UniProt O95342)
Details: 10 μM ketoconazole, 24 hours; D(−)-HO and S(−)-HO
Description: Specifically, the liver organoids were recovered on Matrigel and washed three times with DPBS. For CDFDA (5(6)-carboxy-2′,7′-dichlorofluorescein diacetate) staining, the liver organoids treated with or without 2 mM probenecid for 3 hours were stained with 10 μM CDFDA (Sigma-Aldrich) for 15 minutes at 37° C., 5% CO2. […] All samples were washed three times with DPBS, stained with Hoechst 33342, and observed under an Olympus FV3000 confocal microscope.

Question: How did the “BSEP-specific fluorescence (CLF) when transporter blocked” value turn out when `CC(=O)N1CCN(c2ccc(OCC3COC(Cn4ccnc4)(c4ccc(Cl)cc4Cl)O3)cc2)CC1` (stereo not shown) [ketoconazole] was run?
Answer: accumulated in the lumen of the liver organoids
